Measurements as given in patent US20250188078A1, “SMALL MOLECULE INHIBITORS OF THE CRL4 UBIQUITIN LIGASE” (Cornell University, priority 2022, published 2025).

Protein sequences, listed by entry. Tags and fused reporters are not part of them. Residues count along the entry.
UniProt Q16531, 403-706 limits assumed: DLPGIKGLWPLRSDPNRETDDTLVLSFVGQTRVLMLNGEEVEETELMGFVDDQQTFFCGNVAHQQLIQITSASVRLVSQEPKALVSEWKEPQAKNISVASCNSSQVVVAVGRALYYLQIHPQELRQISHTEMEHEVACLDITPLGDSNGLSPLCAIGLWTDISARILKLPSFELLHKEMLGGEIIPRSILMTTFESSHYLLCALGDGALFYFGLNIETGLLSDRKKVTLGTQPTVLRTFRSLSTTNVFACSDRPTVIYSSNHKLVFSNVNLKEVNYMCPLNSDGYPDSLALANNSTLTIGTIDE

How the values were obtained:
[1] = target: CUL4A-DDB1-BPB interaction (Homo sapiens (Human), UniProt Q16531); test: AlphaLISA in vitro binding assay, CUL4A and DDB1-BPB binding; conditions: read-out: AlphaLisa IC50; inhibition of CUL4A and DDB1-BPB binding
Excerpt: AlphaLISA IC50 (see Table 1, column 4) means the half maximal inhibitory concentration of compound that inhibits CUL4A and DDB1-BPB binding. Our lab established and optimized 384 well-based AlphaLISA in vitro binding assay for testing small molecule inhibitory activity. Small molecule libraries were screened for compounds that disrupt CUL4A-DDB1-BPB interaction using AlphaScreen detection beads (PerkinElmer, #AL112C and #6765300) following the manufacturer's protocol (https://www.perkinelmer.com/PDFs/downloads/GDE-Alphatech.pdf, hereby incorporated by reference in its entirety for all purposes). The 384-well assay plates (Greiner Bio-one, #781075) were read in Synergy Neo2 Hybrid Multi-Mode Reader (BioTek). The IC50 was calculated by Prism 8 XY analysis nonlinear regression (curve fit-Log(inhibitor) vs response).

[2] = system: CUL4A^high MDA-MB-468 breast cancer cells; test: Cell killing in CUL4-high MDA-MB-468 cells (CellTiter Glo); conditions: read-out: EC50 CUL4-High Cells (cell killing), 8 days treatment
Procedure: EC50 refers to concentration of compound that induces 50% killing of CUL4A^high MDA-MB-468 cells (see Table 1, column 6). CUL4A^high MDA-MB-468 breast cancer cells were seeded in 96 well plates. After 24 hours, cells were treated with DMSO or compounds. Change fresh medium and compounds. After 8 days treatment, cell viability was examined by using CellTiter Glo kit (Promega #7570) following the manufacturer's guidelines (https://www.promega.com/-/media/files/resources/protocols/technicalbulletins/0/celltiter-glo-luminescent-cell-viability-assay protocol.pdf?rev=0d95c232094b41daa06d0c110d1d916f&sc_lang=en, hereby incorporated by reference in its entirety for all purposes). EC50 concentration was calculated by Prism 8 XY analysis nonlinear regression (curve fit-Log(inhibitor) vs response). Lower EC50 indicates high cell killing potential in CUL4^high MDA-MB-468 cells.
(§1) Measurements were performed via a Cell Titer Glo assay that measured selective killing of CUL4^high (MDA-MB-468), CUL4^low (T47D), and MCF7 cells. CUL4A^high MDA-MB-468, CUL4^low (T47D), and MCF7 breast cancer cells were seeded in 96 well plates separately. Cells were treated with DMSO, or from 0 to 20 μM compound respectively. Replace with fresh medium and compounds every 48 hours. […] Then record luminescence. EC50 concentration was calculated by Prism 8 XY analysis nonlinear regression (curve fit-Log(inhibitor) vs response).

[3] = system: CUL4A^low T47D breast cancer cells; test: Cell killing in CUL4-low T47D cells (CellTiter Glo); conditions: read-out: EC50 CUL4-Low Cells (cell killing), 8 days treatment
Procedure: EC50 indicates compound concentration can cause 50% cell killing in CUL4° ^w T47D cells (see Table 1, column 7). CUL4A^low T47D breast cancer cells were seeded in 96 well plate. […] Change fresh medium and compounds every 48 hours. After 8 days treatment, cell viability was examined by using CellTiter Glo kit (Promega #7570) following the manufacturer's guidelines (https://www.promega.com/-/media/files/resources/protocols/technical-bulletins/0/celltiter-glo-luminescent-cell-viability-assay-protocol.pdf?rev=0d95c232094b41daa06d0c110d1d916f&sc_lang=en, hereby incorporated by reference in its entirety for all purposes). EC50 concentration was calculated by Prism 8 XY analysis nonlinear regression (curve fit-Log(inhibitor) vs response). EC50 indicates cell killing potential in CUL4 low T47D cell line and the EC50 difference between CUL4^high and CUL4^low cells indicates the small molecule cause specific cell killing.
as §1, with “Cells were treated with DMSO, or from 0 to 20 μM compound respectively.” left out

DDB1-BPB = DDB1-BPB (Homo sapiens (Human), UniProt Q16531); test: Surface Plasmon Resonance (SPR) binding to DDB1-BPB; conditions: read-out: Kd (SPR); DDB1-BPB immobilized
Excerpt: Kd represents dissociation constant, which measures the affinity of small molecule binding to the scaffold DDB1-BPB by Surface Plasmon Resonance (SPR) (https://www.bio-rad.com/webroot/web/pdf/lsr/literature/Bulletin_6414.pdf, hereby incorporated by reference in its entirety) (see Table 1, column 8). To assess the interaction between DDB1-BPB and compounds, a multi-parametric SPR instrument (BioRad ProteON XPR360) was used. DDB1-BPB was immobilized onto the GLH sensor surface in a variety of ways as follows: flow channels were activated in parallel with 1/20 diluted EDC/SNHS. DDB1-BPB was diluted to 0.1 mg/mL in sodium acetate pH 4.5 and directly coupled onto channel for 4 min. Excess reactive esters were blocked with a 5-min injection of 1 M ethanolamine. Mean immobilization levels were 17,000 RU with <2% variation along a strip. One channel was left unmodified to provide an additional reference surface. Next, the binding kinetics of compounds on surfaces was determined in a single injection using a “one-shot” kinetic mode. Typically, compound was prepared as a twofold serial dilution (0, 3.125, 6.25, 12.5, 25, 50 μM) and injected for 60 s at […]. Dissociation was monitored for 800 s. […] All resulting sensor grams were collected and analyzed using the ProteOn manager software.

[4] = system: CUL1-dependent IκB-α degradation in Hela cells; test: TNFα-induced CUL1/SCF-dependent IκBα degradation assay (Western blot); conditions: FIG. 6D
Procedure: FIG. 6D Western blotting of TNFα-induced […] IκBα degradation assay. Hela cells were seeded in 6-well plates. After 24 hours incubation, DMSO or indicated concentration of compounds were added with serum-free medium for 2 hours incubation. TNFα was added and cells were harvested, lysed in buffer containing 150 mM NaCl, 1% SDS, 10 mM Tris-HCl (pH 6.8), 1× complete protease inhibitor cocktail and 10 U Benzo nuclease. Equal amounts of proteins were resolved on 9% SDS-PAGE gel and IκBα levels were detected using anti-IκBα rabbit polyclonal antibody (Proteintech, 10268-1-AP). α-tubulin (Proteintech, #66031-1-Ig) was used as an internal loading control. TNFα-induced IκBα degradation was mediated by CUL1/SCF^βTrCP E3 ligase.

Compound: CN(c1ccc(-c2nc(C(=O)O)cc3c2[nH]c2ccccc23)cc1)S(=O)(=O)c1ccccc1
- IC50 [1]: 0.84 µM
- EC50 [2]: 46.5 µM
- EC50 [3]: > 100 µM
- Kd (DDB1-BPB): 3.44 µM
- Inhibition of TNF-α induced CUL1-dependent IκB-α degradation [4]: no inhibition
